# Source: patent US11324714B2 (priority 2008, dated 2022)
# Experiments:
# leukemic cells [1] = experiment: induction of apoptosis (mitochondrial membrane potential, caspase cleavage, PARP, annexin V)
# [2] = system: human leukemia cell lines and leukemic cells obtained from patients with acute or chronic leukemia; experiment: long-term (7 day) colony-forming assay in semi-solid medium; conditions: 7 day colony-forming assay (FIG. 27B)
# cell cycle progression = experiment: cell cycle progression; conditions: FIG. 33
# [3] = system: CD11b maturation marker on the surface of cells; experiment: cell differentiation/maturation (CD11b maturation marker); conditions: low doses; marginal compared with ATO (FIG. 32)
# [4] = system: human acute myelocytic leukemia (AML) cell lines; experiment: 72 hour MTS assay
# leukemic cells [5] = experiment: modulation of GSH redox system (BSO, DTT, NAC pretreatment)
# [6] = system: healthy donor peripheral blood mononuclear cells; experiment: long-term colony forming assay, toxicity to normal cells; conditions: healthy donor PBMC, long-term colony forming assay (FIG. 34)
smiles,measurement,setting,value
CCC[As](CCC)SCC(O)CO (centres unmarked),induction of apoptosis compared with ATO,leukemic cells [1]; FIGS. 28 and 29,more potent in induction of apoptosis than ATO
same,apoptotic pathway activation,"leukemic cells [1]; mitochondrial membrane potential, caspase 9 cleavage",activated the mitochondrial apoptotic pathway
same,anti-leukemic activity compared with arsenic trioxide,[2],significantly higher activity than arsenic trioxide
same,effect on cell cycle progression,cell cycle progression,no effect
same,cell differentiation/maturation (CD11b induction),[3],partially induce cell differentiation/maturation
same,IC50,[4]; different human AML cell lines,560 to 860 nM
same,activity compared with arsenic trioxide,[4]; human AML cell lines (FIG. 27A),higher than the activity of arsenic trioxide
same,sensitivity of leukemic cells to compound after pretreatment with buthionine sulfoximine (BSO),leukemic cells [5]; BSO pretreatment (FIG. 30),more sensitive
same,sensitivity of leukemic cells to compound after pretreatment with DTT or NAC,leukemic cells [5]; DTT or NAC pretreatment (FIG. 30),less sensitive
same,modulation of GSH redox system,leukemic cells [5]; compared with ATO (FIG. 31),earlier and to a greater extent than ATO
same,toxicity to normal cells compared with ATO,[6],less toxic to normal cells than ATO
